Results as given in paper PMC10709440, “High-throughput ligand profile characterization in novel cell lines expressing seven heterologous insect olfactory receptors for the detection of volatile plant biomarkers” (Scientific Reports, 2023).
Read-outs that look alike come from different tables or passages of the source.

Experiments:
Drosophila OR10a = target: T1, Drosophila OR10a (Drosophila melanogaster, UniProt Q9VYZ1); test: Calcium ion fluorescence (GCaMP6) assay, OR10a stable HEK293 cell line; assay type: cell-based; details: for DF norm AVERAGE OR10a: normalized fluorescence change, values below 0.05 threshold given as 0
T1 construct: expressed in transfected cells
T1 sequence (Q9VYZ1 1-406): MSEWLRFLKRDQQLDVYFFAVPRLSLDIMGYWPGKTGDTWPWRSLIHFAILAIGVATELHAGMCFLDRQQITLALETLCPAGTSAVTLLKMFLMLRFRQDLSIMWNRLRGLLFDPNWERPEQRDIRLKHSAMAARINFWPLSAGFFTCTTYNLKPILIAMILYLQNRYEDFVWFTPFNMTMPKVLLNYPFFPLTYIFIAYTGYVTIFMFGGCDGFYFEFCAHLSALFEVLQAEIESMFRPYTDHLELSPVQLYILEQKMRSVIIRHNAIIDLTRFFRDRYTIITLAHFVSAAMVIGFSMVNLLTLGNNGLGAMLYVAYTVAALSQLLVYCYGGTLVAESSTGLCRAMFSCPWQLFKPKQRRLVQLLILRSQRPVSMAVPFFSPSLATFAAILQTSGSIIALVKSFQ
T1 sequence (Q9VNB5 1-486 partner): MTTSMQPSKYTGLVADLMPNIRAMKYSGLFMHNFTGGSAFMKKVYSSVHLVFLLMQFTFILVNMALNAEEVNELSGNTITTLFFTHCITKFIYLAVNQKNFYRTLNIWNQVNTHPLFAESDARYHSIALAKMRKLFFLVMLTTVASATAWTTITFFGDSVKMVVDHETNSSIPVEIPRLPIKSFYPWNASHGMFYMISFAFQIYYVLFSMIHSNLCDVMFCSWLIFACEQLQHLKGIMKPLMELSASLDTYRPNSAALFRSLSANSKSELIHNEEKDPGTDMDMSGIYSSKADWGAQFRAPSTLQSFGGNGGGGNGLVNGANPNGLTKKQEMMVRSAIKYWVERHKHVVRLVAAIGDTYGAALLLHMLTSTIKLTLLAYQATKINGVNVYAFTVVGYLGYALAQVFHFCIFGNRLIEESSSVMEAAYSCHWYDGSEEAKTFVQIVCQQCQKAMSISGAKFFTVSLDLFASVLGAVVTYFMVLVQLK
Description: (§1) These VUAA1 normalized ∆F values were used to compare the different receptors and ligands.
(§2) The concentration-dependent effect of the reference ligands on their cognate cell lines was examined in more detail. Twelve different ligand concentrations were measured on each cell line in an overall 0.01 μM to 100 μM concentration range with 5 repetitions with three technical replicates each time.
(§3) Twelve thousand to 18,000 cells were plated into each well of a black wall, transparent bottom 384-well microplate (Greiner) 48 h or 72 h before the measurements and were simultaneously treated with 1 μg/mL doxycycline. […] The plate has 24 columns, thus we could record responses in up to eight different cell lines in each plate. On the day of the experiment, the growth medium was replaced with 20 µL assay buffer/well (140 mM NaCl, 5 mM KCl, 2 mM CaCl2, 1 mM MgCl2, 5 mM HEPES-Na, 20 mM glucose, pH 7.3, 340 mOsm). […] Baseline fluorescence (F0) was recorded for 5 s, after which 7 µL VOC buffer (140 mM NaCl, 5 mM KCl, 2 mM CaCl2, 1 mM MgCl2, 5 mM HEPES-Na, 31 mM glucose, 0.1% DMSO, pH 7.3, 340 mOsm) was injected into each well in one row and the fluorescence response was recorded for an additional 30 s, at a rate of one read/sec. VOC solutions (VOC buffer with 4× concentration of the final measured VOC concentration, 9 µL/well was injected) were measured on the same wells in a second round with the same protocol. Each individual concentration of a specific VOC sample was recorded in three wells for the same cell line on the same microplate. The raw data were exported in xls file format, F0 and FMAX values, and the fluorescence intensity changes (∆F) were calculated in Excel (Microsoft) (Supplementary file Data summary.xlsx) using the following equation: ΔF=FMAX-F0/F0 (see also Fig. 1C). On each plate, we recorded the response of each cell line to 50 µM VUAA1. The average of these ∆F values of each cell line were used to calculate the VUAA1-normalized values for the rest of the plate, by dividing VOC response ∆F values by the average VUAA1 response ∆F value of the corresponding OR cell line. Each VOC-OR combination was measured three times as technical replicates. […] The average of these replicates were used as one ∆F and VUAA1-normalized ∆F in the following analysis.
In the next rows we tested the reference VOCs (or other VOCs known to activate the corresponding cell lines), in order to test if all cell lines are responsive. The remaining rows were used to test VOCs with unknown effect.
(§4) The recorded FMAX, F0, ∆F, VUAA1-normalized ∆F values, as well as the OR name, the name of the tested sample, and the final concentration for each well were copied into supplementary file Data summary.xlsx, that was used to summarize all the plates recorded. Here, the averages of the measurements were calculated for each receptor-VOC-concentration combination.

OR10a = test system: OR10a; set-up: method as in earlier work; details: DoOR database value; ref DoOR; cited from earlier work
Drosophila OR49b = target: T2, Drosophila OR49b (Drosophila melanogaster, UniProt Q9V6H2); test: cell-based
T2 construct: expressed in transfected cells
T2 sequence (Q9V6H2 1-375): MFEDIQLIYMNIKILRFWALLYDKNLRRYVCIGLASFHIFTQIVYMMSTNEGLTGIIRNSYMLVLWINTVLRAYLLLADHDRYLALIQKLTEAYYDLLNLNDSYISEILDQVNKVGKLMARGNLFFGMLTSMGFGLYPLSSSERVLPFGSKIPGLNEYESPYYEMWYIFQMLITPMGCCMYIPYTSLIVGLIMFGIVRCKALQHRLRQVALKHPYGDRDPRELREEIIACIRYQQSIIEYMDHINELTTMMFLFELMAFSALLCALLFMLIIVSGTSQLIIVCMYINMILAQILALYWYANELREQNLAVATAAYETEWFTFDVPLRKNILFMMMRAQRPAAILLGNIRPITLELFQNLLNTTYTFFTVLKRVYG
T2 sequence (Q9VNB5 1-486 partner): T1 sequence (Q9VNB5 1-486 partner)
Description: as §1, §2, §3
In the next rows we tested the reference VOCs (or other VOCs known to activate the corresponding cell lines), in order to test if all cell lines are responsive. […]
as §4

[1] = HEK293, read-out: OR10a Average response (VUAA1-normalized)
[2] = HEK293, read-out: OR10a response (VUAA1-normalized response)
[3] = HEK293, read-out: OR49b response (VUAA1-normalized response)

For `CC(=O)CCC=C(C)C` [6-methyl-5-hepten-2-one], the activation at 1 µM (Drosophila OR10a; [1]) was 0%, the activation at 10 µM (Drosophila OR10a; [1]) was 0% and the activation at 100 µM (Drosophila OR10a; [1]) was 5%. It also gave an activation at 1 µM (Drosophila OR10a; [2]) of 0%, an activation at 10 µM (Drosophila OR10a; [2]) of 0% and an activation at 100 µM (Drosophila OR10a; [2]) of 0%. For the same molecule, the “DF norm AVERAGE OR10a” value (Drosophila OR10a; concentration 1) was 0, the “DF norm AVERAGE OR10a” value (Drosophila OR10a; concentration 10) was 0 and the “DF norm AVERAGE OR10a” value (Drosophila OR10a; concentration 100) was 0. For the same molecule, the “OR10a DoOR response” value (OR10a) was 0.023, the “DF norm AVERAGE OR49b” value (Drosophila OR49b) was 0 and the activation at 1 µM (Drosophila OR49b; [3]) was 0%. The activation at 10 µM (Drosophila OR49b; [3]) was 0% and the activation at 100 µM (Drosophila OR49b; [3]) was 0%.
